From PubChem BioAssay AID1259313 (Sanford-Burnham Center for Chemical Genomics, 2017)
The entries are a selection whose mix differs from that of the whole data set. Activity calls are given as the source filed them.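 How the source made its calls: active means melting temperature shift of at least 10% of the positive control shift, at one fixed dose; inactive means the rest.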

The compounds below were run on Glutamate receptor ionotropic, NMDA 3A (GRIN3A) ligand-binding domain (assay: NR3A LBD thermal stabilization by compounds – biophysical, differential scanning fluorimetry, uHTS, primary screen (AID 1259313)). Conditions: at 25 µM, hits give high values, 0% = protein alone, 100% = glycine-bound protein.

Row | SMILES | Tm shift relative to glycine control
1 | CC(C)c1ccc(OP(=O)(Nc2ccccn2)Oc2ccccc2F)cc1 (centres undefined) | inactive: -1.38%
2 | COC(=O)C1(C)COP(=O)(N2CCCCCC2)OC1 (centres undefined) | inactive: -0.18%
3 | ClCCSc1nnc(-c2cccnc2)o1 | inactive: 0.09%
4 | O=C(OC1CN2CCC1CC2)c1cccc2[nH]cnc12 (centres undefined) | inactive: 0.44%
5 | CCN(CC)C(=S)SC(NC=O)C(Cl)(Cl)Cl (centres undefined) | inactive: 0.08%
6 | CC(C)NC(=O)NP(=O)(Oc1ccccc1)Oc1ccccc1 | inactive: -0.44%
7 | O=[N+]([O-])c1cc([N+](=O)[O-])c(-c2ccn[nH]2)s1 | inactive: 0.51%
8 | C[As](=O)(O)c1cccc(C(=O)O)c1 | inactive: -6.62%
9 | O=[As](O)(c1ccc(O)cc1)c1ccccc1O | inactive: -1.33%
10 | COc1cc(C(=O)NCC2(N3CCOCC3)CCCCC2)ccc1OCC(C)C | inactive: 0.17%
11 | O=[N+]([O-])c1ccc(-c2cc([N+](=O)[O-])c(O)c([N+](=O)[O-])c2)cc1 | inactive: 6%
12 | Cc1ccc2nc3c(c(C)c2c1)CC(C(Cl)Cl)S3 (centres undefined) | inactive: -6.35%
13 | Cc1ccc(OP(=O)(Nc2ccc([N+](=O)[O-])cn2)Oc2ccc(C)cc2)cc1 | inactive: -2.68%
14 | NC(=O)Nc1ccc([As](=O)(O)O)cc1 | inactive: -2.27%
15 | CN(C)C(=O)c1cc([N+](=O)[O-])cc2c1-c1c(cc([N+](=O)[O-])cc1[N+](=O)[O-])C2=O | inactive: 0.54%
16 | O=[N+]([O-])c1ccc2c(c1)nnn2O | inactive: 1.28%
17 | CN(C(=O)Cc1ccc(Cl)c(Cl)c1)[C@H]1CC[C@@]2(CCCO2)C[C@@H]1N1CCCC1 | inactive: 1.26%
18 | N#CCCN(C(=O)COC(=O)C(O)(c1ccccc1)c1ccccc1)c1ccc(F)cc1 | inactive: -4.66%
19 | CCOP1(=S)c2c(C)nn(CCC#N)c2N=C(c2ccc(F)cc2)N1C (centres undefined) | inactive: -1.56%
20 | CN(C(=O)Cc1ccccc1)[C@@H]1CC[C@]2(CCCO2)C[C@H]1N1CCCC1 | inactive: -0.47%

Row | SMILES | Tm shift relative to glycine control
21 | CS(=O)(=O)c1cc([N+](=O)[O-])c2no[n+]([O-])c2c1 | inactive: -3.37%
22 | CCOP1(=S)c2c(C)nn(CCC#N)c2N=C(c2ccccc2F)N1C (centres undefined) | inactive: -2.52%
23 | O=P(Nc1nccs1)(c1ccccc1)c1nc2ccccc2s1 (centres undefined) | inactive: 0.51%
24 | O=P(Nc1nccs1)(Oc1ccccc1)Oc1ccccc1 | inactive: 1.51%
25 | Nc1ccccc1[As](=O)(O)c1ccccc1 | inactive: 1.18%
26 | O=C(O)COc1ccc([As](=O)(O)O)cc1[N+](=O)[O-] | inactive: -0.8%
27 | CCCOP(=S)(Nc1nc(N)cc(=O)[nH]1)OCCC | inactive: -6.62%
28 | Nc1cccc2c([As](=O)(O)O)cccc12 | inactive: 1.8%
29 | Cc1ccc(NCCc2c([N+](=O)[O-])cc([N+](=O)[O-])cc2[N+](=O)[O-])cc1 | inactive: -3.53%
30 | COc1cc(C2NCCC3(OCCO3)C2(C)C)cc(OC)c1OC (centres undefined) | inactive: -12.5%
31 | CCOP(=O)(Nc1cccc2ccccc12)OCC | inactive: 0.34%
32 | COc1cc(C(=O)NCC2(N3CCOCC3)CCCCC2)cc(Cl)c1OC(C)C | inactive: -1.01%
33 | O=[As](O)(O)c1cccnc1 | inactive: -0.47%
34 | CS(=O)(=O)c1ccc(Cl)c(NC(=O)COC(=O)C(O)(c2ccccc2)c2ccccc2)c1 | inactive: 2.2%
35 | O=C(OC1CN2CCC1CC2)c1ccc(Cl)cc1 (centres undefined) | inactive: 1.33%
36 | O=[As](O)(c1cccc(O)c1)c1cccc(O)c1 | inactive: -0.93%
37 | Cc1cccc(OCC(=O)OC2CN3CCC2CC3)c1 (centres undefined) | inactive: -1.14%
38 | COc1ccccc1CNC(=O)COC(=O)C(O)(c1ccccc1)c1ccccc1 | inactive: 0.17%
39 | CC1(CBr)Cn2c(nc3ccccc3c2=O)S1 (centres undefined) | inactive: 5.11%
40 | CC(C)/C=N\N=C(\N)N[N+](=O)[O-] | inactive: 0.79%

Row | SMILES | Tm shift relative to glycine control
41 | CN(CCCl)Cc1cc(Cl)c(NC2=NCCN2)c(Cl)c1 | inactive: -0.95%
42 | CCOP(=O)(Nc1ccc(C)cn1)OCC | inactive: 6.11%
43 | O=P1(Nc2ccccn2)COc2ccccc2OC1 | inactive: 2.47%
44 | CCC1=CC2Cc3nc4ccc(Cl)cc4c(N)c3C(C1)C2 (centres undefined) | inactive: -1.59%
45 | CCOP(=O)(NC(=NC(C)c1ccccc1)NC(C)c1ccccc1)OCC (centres undefined) | inactive: -0.18%
46 | Clc1n[nH]nc1-c1nn[nH][15n]1 | inactive: 3.96%
47 | CC(C)(C)C(=O)NC(Sc1ncccn1)C(Cl)(Cl)Cl (centres undefined) | inactive: 0.48%
48 | O=P1(Nc2ncccn2)COc2ccccc2OC1 | inactive: 2.22%
49 | O=P1(Nc2ccc(Br)cn2)COc2ccccc2OC1 | inactive: 1.59%
50 | NS(=O)(=O)c1cccc(NC(=O)COC(=O)C(O)(c2ccccc2)c2ccccc2)c1 | inactive: -3.45%
51 | O=[As](O)(c1cccs1)c1cccs1 | inactive: 1.8%
52 | Cc1ccc(OCC(=O)OC2CN3CCC2CC3)cc1 (centres undefined) | inactive: -0.09%
53 | Nc1cccc([As](=O)(O)c2ccccc2)c1 | inactive: 0.32%
54 | Cc1nn(-c2ccccc2)c2c1P(=O)(N1CCOCC1)N(C)C(c1ccccc1)=N2 (centres undefined) | inactive: -0.09%
55 | CC1CCC(C(C)C)C(OP(=O)(Nc2ccccn2)c2ccccc2)C1 (centres undefined) | inactive: -2.86%
56 | Cc1ccc(C(=O)OC2CN3CCC2CC3)cc1 (centres undefined) | inactive: -6.62%
57 | O=C(/C=C/c1ccccc1)OC1CN2CCC1CC2 (centres undefined) | inactive: -0.64%
58 | CCCC1OP(=O)(Nc2ccccc2)OCC1CC (centres undefined) | inactive: 0.6%
59 | CN(C)C1(CNC(=O)c2ccc(S(C)(=O)=O)cc2)CCCCC1 | inactive: -0.93%
